In PubChem BioAssay (EPA / NIEHS):
The entries are a selection whose mix differs from that of the whole data set. Active and inactive are the calls of the source. Rule for the calls: active = hit-call score of the fitted dose curve at least 0.9, where 1 is the maximum; inactive = score below 0.9.

Amino acid sequences for entries named in this document (tags omitted).
UniProt P16581, whole entry: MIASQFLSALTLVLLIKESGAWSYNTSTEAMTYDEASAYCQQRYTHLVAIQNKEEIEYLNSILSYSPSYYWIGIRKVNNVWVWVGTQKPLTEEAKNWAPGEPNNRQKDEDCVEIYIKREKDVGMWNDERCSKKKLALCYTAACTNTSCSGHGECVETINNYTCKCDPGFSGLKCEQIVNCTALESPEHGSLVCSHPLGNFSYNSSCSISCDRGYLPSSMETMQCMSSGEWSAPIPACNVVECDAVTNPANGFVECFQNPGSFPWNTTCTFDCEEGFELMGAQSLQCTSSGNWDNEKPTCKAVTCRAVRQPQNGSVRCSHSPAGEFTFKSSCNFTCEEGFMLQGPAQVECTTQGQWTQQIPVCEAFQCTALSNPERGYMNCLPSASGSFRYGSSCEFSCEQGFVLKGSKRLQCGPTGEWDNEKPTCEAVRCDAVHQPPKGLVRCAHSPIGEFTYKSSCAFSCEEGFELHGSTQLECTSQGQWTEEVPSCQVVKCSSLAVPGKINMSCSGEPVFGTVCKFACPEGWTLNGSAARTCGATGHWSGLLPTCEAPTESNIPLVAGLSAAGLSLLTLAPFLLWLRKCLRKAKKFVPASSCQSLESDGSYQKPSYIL

Experiments:
[1] = APR_HepG2_CellLoss_24hr: Apredica 24-hour HepG2 Assay for Cell Loss (AID 2282908); conditions: high-content imaging;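 note: fit in both directions so a hit may be cell loss or gain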
Outline: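 Compounds were tested at 0.39–200 uM in duplicate with 0.5% v/v DMSO final. Cells were then fixed in 3.7% formaldehyde, Hoechst 33342 nuclei were imaged at 20x by HCS, and cell number was fitted bidirectionally against DMSO.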

[2] = APR_HepG2_CellLoss_72hr: Apredica 72-hour HepG2 Assay for Cell Loss (AID 2282915); conditions: high-content imaging
Description: APR_HepG2_72hr is a cell-based, multiplexed-readout assay that uses HepG2, a human liver cell line, with measurements taken at 72 hours after chemical dosing in a 384-well plate.APR_HepG2_CellLoss_72hr is one of 10 assay component(s) measured or calculated from the APR_HepG2_72hr assay. It is designed to make measurements of cell number, a form of viability reporter, as detected with fluorescence intensity signals by HCS Fluorescent Imaging technology.Data from the assay component APR_HepG2_CellLoss_72hr was analyzed into 1 assay endpoint. This assay endpoint, APR_HepG2_CellLoss_72hr, was analyzed with bidirectional fitting relative to DMSO as the negative control and baseline of activity. […] Furthermore, this assay endpoint can be referred to as a secondary readout, because this assay has produced multiple assay endpoints where this one serves a viability function. […]
Cells were treated with dimethyl sulfoxide (DMSO) as a solvent control at a final concentration of 0.5% v/v or with compounds in DMSO with a resulting final DMSO concentration of 0.5% v/v. […] Six digital images were captured in each well and analyzed using BioApplication software, which was provided with the instrument. All images were analyzed using the Compartmental Analysis and Cell Cycle Analysis BioApplication software from Cellomics. […]

[3] = BSK_3C_uPAR: BioMAP Diversity Plus: 3C Assay for Urokinase-type plasminogen activator receptor (uPAR) Biomarker Activity (AID 2282998); conditions: BioMAP 3C HUVEC, uPAR biomarker ELISA; actives raise or lower the signal
Outline: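 Endothelial primary cells of human umbilical vein origin received test chemical; 24 h later uPAR was assayed by ELISA. Fitting was bidirectional, DMSO as negative control.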

[4] = BSK_4H_Eotaxin3: BioMAP Diversity Plus: 4H Assay for Eotaxin 3 Biomarker Activity (AID 2283000); conditions: actives raise or lower the signal; primary human endothelial cells (HUVEC)
Outline: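 Chemicals were added to human umbilical vein endothelium cultures, and Eotaxin-3 was quantified by ELISA at 24 h. Values were derived by bidirectional fitting with DMSO serving as negative control and activity baseline.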

[5] = read-out: Intercellular Adhesion Molecule 1 (ICAM1), ICAM1 (gene 3383); test: BSK_3C_ICAM1: BioMAP Diversity Plus: 3C Assay for Intercellular Adhesion Molecule 1 (ICAM1) Biomarker Activity (AID 2283003); conditions: actives raise or lower the signal; primary human endothelial cells (HUVEC)
Outline: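 Primary human umbilical vein endothelial cells in the BioMAP 3C system were exposed to chemicals for 24 h, then ICAM-1 was quantified by ELISA. Activity was fitted bidirectionally against the DMSO negative control baseline.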

[6] = read-out: Interleukin-1 alpha (IL1a), IL1A (gene 3552); test: BSK_BE3C_IL1a: BioMAP Diversity Plus: BE3C Assay for Interleukin-1 alpha (IL1a) Biomarker Activity (AID 2283016); conditions: actives raise or lower the signal; primary human bronchial epithelial cells
Outline: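 Human primary bronchial epithelial cells (BE3C system) were dosed with compound and IL-1a measured by ELISA 24 h later. Activity was fitted bidirectionally against DMSO baseline; cytotoxicity was tracked in parallel cultures by SRB total-protein staining.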

[7] = read-out: Interleukin-8 (IL8), CXCL8 (gene 3576); test: BSK_3C_IL8: BioMAP Diversity Plus: 3C Assay for Interleukin-8 (IL8) Biomarker Activity (AID 2283020); conditions: actives raise or lower the signal; primary human endothelial cells (HUVEC)
Outline: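 Primary human umbilical vein endothelial cells (3C system) were exposed to test chemical for 24 h, then IL-8 was quantified by ELISA. Responses were fitted bidirectionally against DMSO vehicle as baseline.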

[8] = BSK_3C_SRB: Viability Assessment in the BioMAP Diversity Plus: 3C Assay (AID 2283023); conditions: primary human endothelial cells (HUVEC);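 note: cells read 24 h after compound dosing; fitted both ways against DMSO so a hit may be signal rise or drop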
Outline: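 Absorbance at 560 nm of sulforhodamine B-stained (0.1%) total protein served as a cytotoxicity readout in human umbilical vein endothelial cells, 24 h after chemical treatment. Signal was fitted bidirectionally relative to DMSO.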

[9] = BSK_4H_SRB: Viability Assessment in the BioMAP Diversity Plus: 4H Assay (AID 2283027); conditions: primary human endothelial cells (HUVEC);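 note: cells exposed to compound for 24 h before staining; curves fitted both ways versus DMSO so AC50 may be loss or gain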
Outline: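 Human umbilical vein endothelial cells were dosed with chemical and, after 24 h, fixed with 10% TCA, stained with 0.1% sulforhodamine B, and read at 560 nm to give total protein as a cytotoxicity measure. Bidirectional fitting relative to DMSO control.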

[10] = read-out: Human Leukocyte Antigen - DR isotype (HLADR), HLA-DRA (gene 3122); test: BSK_BE3C_HLADR: BioMAP Diversity Plus: BE3C Assay for Human Leukocyte Antigen - DR isotype (HLADR) Biomarker Activity (AID 2283032); conditions: actives raise or lower the signal; primary human bronchial epithelial cells
Outline: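 Human primary bronchial epithelial cells in the BE3C system were exposed to chemicals for 24 h, after which HLA-DR levels were quantified by ELISA. Activity was fitted bidirectionally, gain or loss of signal, against DMSO as negative control and baseline.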

[11] = read-out: Vascular cell adhesion molecule 1 (VCAM1), VCAM1 (gene 7412); test: BSK_4H_VCAM1: BioMAP Diversity Plus: 4H Assay for Vascular cell adhesion molecule 1 (VCAM1) Biomarker Activity (AID 2283033); conditions: actives raise or lower the signal; primary human endothelial cells (HUVEC)
Outline: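 Primary human umbilical vein endothelial cells were exposed to chemicals for 24 h, after which VCAM-1 was quantified by ELISA. Responses were fitted bidirectionally against DMSO as negative control and activity baseline.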

[12] = read-out: Interferon-gamma inducible Protein 10 (IP10), CXCL10 (gene 3627); test: BSK_BE3C_IP10: BioMAP Diversity Plus: BE3C Assay for Interferon-gamma inducible Protein 10 (IP10) Biomarker Activity (AID 2283034); conditions: actives raise or lower the signal; primary human bronchial epithelial cells
Outline: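 Human primary bronchial epithelial cells were exposed to chemicals for 24 hours, after which IP-10 levels were measured by ELISA. Data were fitted bidirectionally against DMSO, which served as the negative control and activity baseline.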

[13] = read-out: Transforming growth factor beta 1 (TGFb1), TGFB1 (gene 7040); test: BSK_BE3C_TGFb1: BioMAP Diversity Plus: BE3C Assay for Transforming growth factor beta 1 (TGFb1) Biomarker Activity (AID 2283036); conditions: actives raise or lower the signal; primary human bronchial epithelial cells
Outline: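 Human primary bronchial epithelial cells (BE3C system) were dosed with chemical and TGF-b1 levels measured by ELISA at 24 h. Activity was fitted bidirectionally relative to DMSO negative control as baseline.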

[14] = BSK_CASM3C_Proliferation: Cell Proliferation Assessment in the BioMAP Diversity Plus: CASM3C Assay (AID 2283047); conditions: primary human coronary artery smooth muscle cells;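 note: sub-confluent cells exposed 48 h before staining; fitted both ways against DMSO so gain or loss of cell number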
[15] = read-out: Monokine induced gamma interferon (MIG), CXCL9 (gene 4283); test: BSK_CASM3C_MIG: BioMAP Diversity Plus: CASM3C Assay for Monokine induced gamma interferon (MIG) Biomarker Activity (AID 2283048); conditions: actives raise or lower the signal; primary human coronary artery smooth muscle cells;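 note: MIG protein level measured by ELISA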
[16] = read-out: serum amyloid A (SAA), SAA1 (gene 6288); test: BSK_CASM3C_SAA: BioMAP Diversity Plus: CASM3C Assay for serum amyloid A (SAA) Biomarker Activity (AID 2283049); conditions: actives raise or lower the signal; primary human coronary artery smooth muscle cells;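 note: SAA protein level quantified by ELISA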
[17] = read-out: Urokinase-type plasminogen activator receptor (uPAR), PLAUR (gene 5329); test: BSK_CASM3C_uPAR: BioMAP Diversity Plus: CASM3C Assay for Urokinase-type plasminogen activator receptor (uPAR) Biomarker Activity (AID 2283054); conditions: actives raise or lower the signal; primary human coronary artery smooth muscle cells;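 note: cell-surface uPAR protein level quantified by ELISA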
[18] = read-out: Epidermal growth factor receptor (EGFR), EGFR (gene 1956); test: BSK_hDFCGF_EGFR: BioMAP Diversity Plus: hDFCGF Assay for Epidermal growth factor receptor (EGFR) Biomarker Activity (AID 2283057); conditions: actives raise or lower the signal; primary human foreskin fibroblasts
Outline: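 Primary human foreskin fibroblasts were exposed to compound for 24 h, after which cell-surface EGFR was quantified by ELISA. Activity was fitted bidirectionally against the DMSO negative control as baseline.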

[19] = read-out: Interleukin-8 (IL8), CXCL8 (gene 3576); test: BSK_hDFCGF_IL8: BioMAP Diversity Plus: hDFCGF Assay for Interleukin-8 (IL8) Biomarker Activity (AID 2283058); conditions: actives raise or lower the signal; primary human foreskin fibroblasts
Outline: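 Cells used are human skin primary fibroblasts. Chemical is added, cultures run 24 h, then IL-8 is quantified by ELISA, and gain or loss versus DMSO control is fitted in both directions.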

[20] = read-out: Matrix Metallopeptidase 1 (MMP1), MMP1 (gene 4312); test: BSK_hDFCGF_MMP1: BioMAP Diversity Plus: hDFCGF Assay for Matrix Metallopeptidase 1 (MMP1) Biomarker Activity (AID 2283064); conditions: actives raise or lower the signal; primary human foreskin fibroblasts
Outline: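 Primary human foreskin fibroblasts in the hDFCGF system were dosed with test chemical, and MMP1 was measured by ELISA 24 h later. Values come from bidirectional curve fitting against the DMSO baseline.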

[21] = read-out: Intercellular Adhesion Molecule 1 (ICAM1), ICAM1 (gene 3383); test: BSK_KF3CT_ICAM1: BioMAP Diversity Plus: KF3CT Assay for Intercellular Adhesion Molecule 1 (ICAM1) Biomarker Activity (AID 2283067); conditions: actives raise or lower the signal; primary human keratinocytes with fibroblasts
Outline: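 ICAM-1 levels are measured by ELISA 24 h after dosing a primary human co-culture of keratinocytes and foreskin fibroblasts. Activity in either direction is fitted relative to DMSO vehicle.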

[22] = read-out: E-selectin (Homo sapiens) (UniProt P16581); test: BSK_LPS_Eselectin: BioMAP Diversity Plus: LPS Assay for Eselectin Biomarker Activity (AID 2283077); conditions: actives raise or lower the signal; primary human HUVEC with PBMC
Outline: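 Primary human vascular co-culture (endothelium plus PBMC) was dosed with chemical, then E-selectin quantified by ELISA at 24 h. Endpoint values derive from bidirectional curve fitting relative to DMSO.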

Measured: AC50

O=C1C2CC=CCC2C(=O)N1SC(Cl)(Cl)C(Cl)Cl (configuration not stated)
active: [1] 10.6 µM | [2] 5.44 µM | [3] 12.8 µM | [4] 14.1 µM | [5] 13.6 µM | [6] 5.03 µM | [7] 27.8 µM | [8] 11.4 µM | [9] 15.5 µM | [10] 5.05 µM | [11] 16.6 µM | [12] 5.05 µM | [13] 5.05 µM | [14] 2.17 µM | [15] 10.9 µM | [16] 11.7 µM | [17] 8.06 µM | [18] 1.54 µM | [19] 2.74 µM | [20] 1.21 µM | [21] 2.14 µM | [22] 10.1 µM
